The record followed here is ChEMBL document CHEMBL3994596, “Structural Basis for Potency and Promiscuity in Poly(ADP-ribose) Polymerase (PARP) and Tankyrase Inhibitors” (J Med Chem, 2017).

Sequences of proteins named here, by UniProt entry; tags and fusion partners are left off. A change or cut given only in a name is not applied to a line headed by its entry.
UniProt Q460N5, whole entry: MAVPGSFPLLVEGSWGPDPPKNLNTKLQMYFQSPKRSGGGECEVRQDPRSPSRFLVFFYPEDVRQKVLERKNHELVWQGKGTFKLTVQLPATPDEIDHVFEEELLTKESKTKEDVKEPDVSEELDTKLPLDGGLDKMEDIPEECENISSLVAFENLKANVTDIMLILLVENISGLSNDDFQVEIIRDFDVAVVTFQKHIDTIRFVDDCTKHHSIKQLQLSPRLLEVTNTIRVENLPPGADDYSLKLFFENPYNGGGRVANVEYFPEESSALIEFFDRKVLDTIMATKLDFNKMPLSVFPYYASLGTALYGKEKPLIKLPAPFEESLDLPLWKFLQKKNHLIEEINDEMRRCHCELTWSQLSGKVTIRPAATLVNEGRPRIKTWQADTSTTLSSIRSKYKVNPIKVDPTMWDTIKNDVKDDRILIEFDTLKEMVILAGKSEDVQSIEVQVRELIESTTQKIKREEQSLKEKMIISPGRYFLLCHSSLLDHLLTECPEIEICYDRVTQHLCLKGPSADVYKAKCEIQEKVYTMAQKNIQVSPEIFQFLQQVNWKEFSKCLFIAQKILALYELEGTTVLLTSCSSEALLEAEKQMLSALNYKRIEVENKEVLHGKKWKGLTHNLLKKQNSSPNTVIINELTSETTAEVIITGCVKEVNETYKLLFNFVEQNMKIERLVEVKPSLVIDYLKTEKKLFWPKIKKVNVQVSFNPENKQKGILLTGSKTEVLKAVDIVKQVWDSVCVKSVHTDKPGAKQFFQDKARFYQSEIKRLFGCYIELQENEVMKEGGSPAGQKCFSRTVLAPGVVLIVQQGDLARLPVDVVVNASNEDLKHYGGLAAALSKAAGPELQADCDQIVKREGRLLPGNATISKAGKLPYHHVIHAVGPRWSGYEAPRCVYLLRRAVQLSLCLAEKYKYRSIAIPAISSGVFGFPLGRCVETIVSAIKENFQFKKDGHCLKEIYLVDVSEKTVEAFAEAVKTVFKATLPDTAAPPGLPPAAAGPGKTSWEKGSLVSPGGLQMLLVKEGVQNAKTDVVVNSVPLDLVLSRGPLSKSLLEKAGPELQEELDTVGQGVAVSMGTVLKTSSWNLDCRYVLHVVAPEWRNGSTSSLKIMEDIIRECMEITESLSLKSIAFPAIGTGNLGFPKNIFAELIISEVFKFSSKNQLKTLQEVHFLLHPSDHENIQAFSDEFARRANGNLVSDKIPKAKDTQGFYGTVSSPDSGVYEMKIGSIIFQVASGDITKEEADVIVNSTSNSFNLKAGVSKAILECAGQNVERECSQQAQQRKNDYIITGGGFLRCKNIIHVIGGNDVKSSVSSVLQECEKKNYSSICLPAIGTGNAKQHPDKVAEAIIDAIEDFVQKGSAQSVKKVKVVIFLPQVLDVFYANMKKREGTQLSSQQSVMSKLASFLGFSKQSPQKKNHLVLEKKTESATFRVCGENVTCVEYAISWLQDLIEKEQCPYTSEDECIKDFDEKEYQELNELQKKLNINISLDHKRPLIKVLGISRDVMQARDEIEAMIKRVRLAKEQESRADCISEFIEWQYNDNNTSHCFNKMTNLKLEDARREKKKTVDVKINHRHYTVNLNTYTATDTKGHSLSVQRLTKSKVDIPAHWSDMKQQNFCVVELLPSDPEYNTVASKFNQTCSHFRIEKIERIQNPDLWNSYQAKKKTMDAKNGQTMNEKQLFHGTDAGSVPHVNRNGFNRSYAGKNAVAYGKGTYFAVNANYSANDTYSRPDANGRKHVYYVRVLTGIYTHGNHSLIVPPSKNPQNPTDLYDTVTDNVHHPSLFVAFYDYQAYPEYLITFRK
UniProt Q9UGN5: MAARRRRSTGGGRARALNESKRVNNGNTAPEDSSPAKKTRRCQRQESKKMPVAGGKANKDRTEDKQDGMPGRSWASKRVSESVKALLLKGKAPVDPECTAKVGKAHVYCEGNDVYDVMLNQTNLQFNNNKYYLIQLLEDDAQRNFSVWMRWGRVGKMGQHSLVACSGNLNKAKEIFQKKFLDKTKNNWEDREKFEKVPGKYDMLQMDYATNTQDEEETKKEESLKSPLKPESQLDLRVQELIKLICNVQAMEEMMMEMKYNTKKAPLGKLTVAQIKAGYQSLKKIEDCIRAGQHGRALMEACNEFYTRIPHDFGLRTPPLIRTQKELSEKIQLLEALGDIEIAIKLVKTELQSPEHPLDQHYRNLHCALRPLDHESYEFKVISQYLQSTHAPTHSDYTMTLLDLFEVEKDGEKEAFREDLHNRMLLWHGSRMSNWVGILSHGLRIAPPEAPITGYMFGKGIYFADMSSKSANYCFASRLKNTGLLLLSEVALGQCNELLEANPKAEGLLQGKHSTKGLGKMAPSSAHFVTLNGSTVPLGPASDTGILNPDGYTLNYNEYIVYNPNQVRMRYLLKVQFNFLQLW
UniProt P09874, whole entry: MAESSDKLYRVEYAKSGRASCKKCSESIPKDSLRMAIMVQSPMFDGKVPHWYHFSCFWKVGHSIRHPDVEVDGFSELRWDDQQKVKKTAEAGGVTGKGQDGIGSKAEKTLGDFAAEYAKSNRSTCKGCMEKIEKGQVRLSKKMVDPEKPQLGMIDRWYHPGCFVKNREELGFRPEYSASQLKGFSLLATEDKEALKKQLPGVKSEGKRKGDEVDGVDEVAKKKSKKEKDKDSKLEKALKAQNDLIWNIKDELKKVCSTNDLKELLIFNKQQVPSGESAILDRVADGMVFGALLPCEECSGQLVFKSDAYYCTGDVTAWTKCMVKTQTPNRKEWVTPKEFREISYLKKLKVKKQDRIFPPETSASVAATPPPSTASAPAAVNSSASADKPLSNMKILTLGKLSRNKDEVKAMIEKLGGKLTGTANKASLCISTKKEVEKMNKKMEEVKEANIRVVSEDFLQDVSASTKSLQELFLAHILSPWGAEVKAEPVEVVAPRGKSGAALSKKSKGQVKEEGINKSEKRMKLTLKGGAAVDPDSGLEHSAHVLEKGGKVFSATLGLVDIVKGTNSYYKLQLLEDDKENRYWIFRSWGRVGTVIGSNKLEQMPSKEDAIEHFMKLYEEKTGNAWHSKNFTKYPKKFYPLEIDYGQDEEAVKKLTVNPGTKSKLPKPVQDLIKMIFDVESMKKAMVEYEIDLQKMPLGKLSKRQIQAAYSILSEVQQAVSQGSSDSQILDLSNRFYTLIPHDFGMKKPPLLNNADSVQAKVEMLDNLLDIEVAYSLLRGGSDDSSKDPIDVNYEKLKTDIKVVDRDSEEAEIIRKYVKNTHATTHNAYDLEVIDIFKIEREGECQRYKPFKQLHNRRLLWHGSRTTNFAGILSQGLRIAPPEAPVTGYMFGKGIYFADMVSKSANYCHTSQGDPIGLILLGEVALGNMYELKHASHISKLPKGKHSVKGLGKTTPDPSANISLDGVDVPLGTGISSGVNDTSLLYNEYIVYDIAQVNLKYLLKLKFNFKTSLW
UniProt Q9UKK3: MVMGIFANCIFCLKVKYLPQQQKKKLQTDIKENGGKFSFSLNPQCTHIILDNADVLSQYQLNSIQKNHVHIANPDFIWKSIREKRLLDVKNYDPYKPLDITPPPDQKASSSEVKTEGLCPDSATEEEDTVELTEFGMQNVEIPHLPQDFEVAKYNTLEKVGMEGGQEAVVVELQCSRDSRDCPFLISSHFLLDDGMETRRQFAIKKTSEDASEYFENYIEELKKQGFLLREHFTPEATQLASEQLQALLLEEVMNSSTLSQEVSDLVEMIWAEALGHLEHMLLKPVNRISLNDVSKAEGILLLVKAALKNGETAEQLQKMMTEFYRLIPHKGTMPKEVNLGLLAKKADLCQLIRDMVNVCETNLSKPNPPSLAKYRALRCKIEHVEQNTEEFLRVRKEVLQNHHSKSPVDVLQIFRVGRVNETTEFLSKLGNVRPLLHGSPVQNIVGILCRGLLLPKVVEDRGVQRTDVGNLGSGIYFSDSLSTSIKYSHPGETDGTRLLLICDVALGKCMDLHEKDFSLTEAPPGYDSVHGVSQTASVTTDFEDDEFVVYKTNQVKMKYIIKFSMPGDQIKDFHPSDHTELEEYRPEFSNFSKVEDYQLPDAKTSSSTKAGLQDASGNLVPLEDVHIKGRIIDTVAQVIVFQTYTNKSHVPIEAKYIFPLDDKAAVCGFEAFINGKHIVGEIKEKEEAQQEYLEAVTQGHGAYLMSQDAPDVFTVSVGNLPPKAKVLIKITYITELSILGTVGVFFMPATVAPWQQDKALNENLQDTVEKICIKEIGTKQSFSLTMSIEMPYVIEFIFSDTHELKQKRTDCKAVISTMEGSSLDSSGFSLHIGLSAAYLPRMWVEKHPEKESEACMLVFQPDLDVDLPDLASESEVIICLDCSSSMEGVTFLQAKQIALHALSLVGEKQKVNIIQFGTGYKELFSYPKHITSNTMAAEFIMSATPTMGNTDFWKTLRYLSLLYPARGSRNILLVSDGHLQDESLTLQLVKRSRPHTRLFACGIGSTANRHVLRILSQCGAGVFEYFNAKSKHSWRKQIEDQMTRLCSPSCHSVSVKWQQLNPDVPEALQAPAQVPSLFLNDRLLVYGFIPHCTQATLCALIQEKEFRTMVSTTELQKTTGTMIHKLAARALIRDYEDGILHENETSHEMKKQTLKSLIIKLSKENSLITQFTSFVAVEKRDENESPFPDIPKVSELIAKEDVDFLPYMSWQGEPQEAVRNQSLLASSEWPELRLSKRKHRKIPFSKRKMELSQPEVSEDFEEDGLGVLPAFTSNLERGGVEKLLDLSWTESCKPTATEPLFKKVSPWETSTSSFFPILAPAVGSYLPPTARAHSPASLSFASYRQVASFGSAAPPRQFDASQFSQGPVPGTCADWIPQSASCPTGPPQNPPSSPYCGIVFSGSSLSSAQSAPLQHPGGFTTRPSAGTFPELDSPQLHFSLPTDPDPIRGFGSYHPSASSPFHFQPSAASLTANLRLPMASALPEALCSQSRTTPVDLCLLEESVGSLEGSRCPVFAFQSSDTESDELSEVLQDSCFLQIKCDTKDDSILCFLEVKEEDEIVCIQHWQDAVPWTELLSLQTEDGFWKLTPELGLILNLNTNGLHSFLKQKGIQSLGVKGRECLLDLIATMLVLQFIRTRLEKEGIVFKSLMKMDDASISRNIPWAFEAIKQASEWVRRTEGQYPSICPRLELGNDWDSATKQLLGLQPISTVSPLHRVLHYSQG

Assay [1] addresses T1, Protein mono-ADP-ribosyltransferase PARP3 (Homo sapiens, UniProt Q9Y6F1).
T1 sequence (Q9Y6F1 whole entry): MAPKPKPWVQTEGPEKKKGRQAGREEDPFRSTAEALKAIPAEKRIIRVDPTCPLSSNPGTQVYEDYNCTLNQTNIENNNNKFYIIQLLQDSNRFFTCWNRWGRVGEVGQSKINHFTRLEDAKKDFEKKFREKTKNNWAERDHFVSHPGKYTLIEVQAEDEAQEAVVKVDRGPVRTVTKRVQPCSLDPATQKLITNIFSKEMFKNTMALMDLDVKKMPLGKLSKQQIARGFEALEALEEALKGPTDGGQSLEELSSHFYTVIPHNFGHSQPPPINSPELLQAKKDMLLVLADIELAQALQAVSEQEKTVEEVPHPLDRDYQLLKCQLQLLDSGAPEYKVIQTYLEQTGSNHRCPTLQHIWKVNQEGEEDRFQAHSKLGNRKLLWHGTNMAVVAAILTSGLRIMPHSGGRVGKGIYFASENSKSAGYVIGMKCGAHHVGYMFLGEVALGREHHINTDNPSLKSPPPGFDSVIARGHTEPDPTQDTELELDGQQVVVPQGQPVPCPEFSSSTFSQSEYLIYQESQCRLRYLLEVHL

Assay [2] has as its target Protein mono-ADP-ribosyltransferase PARP14 (Homo sapiens, UniProt Q460N5).
The target of assay [3] is T2, Poly [ADP-ribose] polymerase tankyrase-1 (Homo sapiens, UniProt O95271).
T2 sequence (O95271 whole entry): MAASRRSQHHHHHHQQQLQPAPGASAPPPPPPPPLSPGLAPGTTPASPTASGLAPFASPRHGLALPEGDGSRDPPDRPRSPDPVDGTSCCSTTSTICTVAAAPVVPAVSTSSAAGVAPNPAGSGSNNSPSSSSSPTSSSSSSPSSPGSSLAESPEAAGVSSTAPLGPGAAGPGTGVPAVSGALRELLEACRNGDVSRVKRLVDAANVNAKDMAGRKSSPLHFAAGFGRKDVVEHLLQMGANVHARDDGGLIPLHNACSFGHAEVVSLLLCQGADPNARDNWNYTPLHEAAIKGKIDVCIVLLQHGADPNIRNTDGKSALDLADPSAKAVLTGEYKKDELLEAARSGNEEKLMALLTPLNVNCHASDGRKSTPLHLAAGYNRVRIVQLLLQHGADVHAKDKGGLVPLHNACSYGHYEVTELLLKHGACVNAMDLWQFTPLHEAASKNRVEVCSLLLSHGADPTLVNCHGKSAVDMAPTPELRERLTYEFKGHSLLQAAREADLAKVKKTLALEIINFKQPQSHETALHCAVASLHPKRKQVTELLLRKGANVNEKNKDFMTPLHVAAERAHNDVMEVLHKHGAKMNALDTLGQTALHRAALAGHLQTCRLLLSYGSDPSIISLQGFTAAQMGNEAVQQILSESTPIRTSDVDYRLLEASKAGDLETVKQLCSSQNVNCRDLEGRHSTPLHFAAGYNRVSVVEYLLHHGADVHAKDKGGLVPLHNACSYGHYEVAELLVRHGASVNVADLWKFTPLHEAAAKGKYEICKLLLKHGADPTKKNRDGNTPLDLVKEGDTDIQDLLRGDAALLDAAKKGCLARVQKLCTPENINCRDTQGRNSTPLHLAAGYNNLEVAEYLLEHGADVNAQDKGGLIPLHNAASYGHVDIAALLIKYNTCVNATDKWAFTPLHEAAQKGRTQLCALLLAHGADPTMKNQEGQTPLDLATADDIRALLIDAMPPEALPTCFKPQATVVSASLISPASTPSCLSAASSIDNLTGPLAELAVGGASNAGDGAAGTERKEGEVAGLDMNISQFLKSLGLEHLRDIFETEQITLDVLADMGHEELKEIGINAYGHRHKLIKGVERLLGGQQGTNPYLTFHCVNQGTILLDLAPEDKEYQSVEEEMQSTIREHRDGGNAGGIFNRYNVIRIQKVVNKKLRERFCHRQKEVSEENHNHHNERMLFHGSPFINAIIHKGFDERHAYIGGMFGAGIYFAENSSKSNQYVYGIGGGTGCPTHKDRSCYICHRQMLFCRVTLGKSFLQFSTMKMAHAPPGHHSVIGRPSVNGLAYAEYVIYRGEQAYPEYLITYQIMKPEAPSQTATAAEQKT

For assay [4], the target named is T3, Poly [ADP-ribose] polymerase 2 (Homo sapiens, UniProt Q9UGN5).
Assay [5] addresses Poly [ADP-ribose] polymerase 1 (Homo sapiens, UniProt P09874).
Assay [6] addresses T3, Poly [ADP-ribose] polymerase 2. This is another data set of the same source.
The target in assay [7] is Protein mono-ADP-ribosyltransferase PARP4 (Homo sapiens, UniProt Q9UKK3).
In assay [8] the target is T4, Protein mono-ADP-ribosyltransferase PARP15 (Homo sapiens, UniProt Q460N3).
T4 sequence (Q460N3 whole entry): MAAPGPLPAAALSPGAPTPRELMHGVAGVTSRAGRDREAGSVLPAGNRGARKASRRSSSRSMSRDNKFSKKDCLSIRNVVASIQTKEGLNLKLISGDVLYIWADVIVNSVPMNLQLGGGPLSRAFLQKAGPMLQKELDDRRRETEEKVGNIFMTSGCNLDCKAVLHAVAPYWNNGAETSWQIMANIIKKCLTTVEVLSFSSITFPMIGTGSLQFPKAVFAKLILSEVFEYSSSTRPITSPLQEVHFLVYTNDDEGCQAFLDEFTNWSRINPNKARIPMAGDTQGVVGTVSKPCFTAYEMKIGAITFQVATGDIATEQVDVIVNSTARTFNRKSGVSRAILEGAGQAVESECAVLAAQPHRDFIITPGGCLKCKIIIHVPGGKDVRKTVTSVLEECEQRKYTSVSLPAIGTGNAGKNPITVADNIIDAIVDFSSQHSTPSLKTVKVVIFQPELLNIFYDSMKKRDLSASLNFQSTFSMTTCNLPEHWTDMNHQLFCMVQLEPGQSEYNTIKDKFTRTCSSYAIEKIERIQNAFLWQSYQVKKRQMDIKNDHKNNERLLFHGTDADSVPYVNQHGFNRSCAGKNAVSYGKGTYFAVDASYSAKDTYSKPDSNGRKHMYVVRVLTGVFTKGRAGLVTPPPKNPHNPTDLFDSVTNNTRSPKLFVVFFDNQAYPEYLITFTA

Assay [9] concerns the target T5, Protein mono-ADP-ribosyltransferase PARP10 (Homo sapiens, UniProt Q53GL7).
T5 sequence (Q53GL7 whole entry): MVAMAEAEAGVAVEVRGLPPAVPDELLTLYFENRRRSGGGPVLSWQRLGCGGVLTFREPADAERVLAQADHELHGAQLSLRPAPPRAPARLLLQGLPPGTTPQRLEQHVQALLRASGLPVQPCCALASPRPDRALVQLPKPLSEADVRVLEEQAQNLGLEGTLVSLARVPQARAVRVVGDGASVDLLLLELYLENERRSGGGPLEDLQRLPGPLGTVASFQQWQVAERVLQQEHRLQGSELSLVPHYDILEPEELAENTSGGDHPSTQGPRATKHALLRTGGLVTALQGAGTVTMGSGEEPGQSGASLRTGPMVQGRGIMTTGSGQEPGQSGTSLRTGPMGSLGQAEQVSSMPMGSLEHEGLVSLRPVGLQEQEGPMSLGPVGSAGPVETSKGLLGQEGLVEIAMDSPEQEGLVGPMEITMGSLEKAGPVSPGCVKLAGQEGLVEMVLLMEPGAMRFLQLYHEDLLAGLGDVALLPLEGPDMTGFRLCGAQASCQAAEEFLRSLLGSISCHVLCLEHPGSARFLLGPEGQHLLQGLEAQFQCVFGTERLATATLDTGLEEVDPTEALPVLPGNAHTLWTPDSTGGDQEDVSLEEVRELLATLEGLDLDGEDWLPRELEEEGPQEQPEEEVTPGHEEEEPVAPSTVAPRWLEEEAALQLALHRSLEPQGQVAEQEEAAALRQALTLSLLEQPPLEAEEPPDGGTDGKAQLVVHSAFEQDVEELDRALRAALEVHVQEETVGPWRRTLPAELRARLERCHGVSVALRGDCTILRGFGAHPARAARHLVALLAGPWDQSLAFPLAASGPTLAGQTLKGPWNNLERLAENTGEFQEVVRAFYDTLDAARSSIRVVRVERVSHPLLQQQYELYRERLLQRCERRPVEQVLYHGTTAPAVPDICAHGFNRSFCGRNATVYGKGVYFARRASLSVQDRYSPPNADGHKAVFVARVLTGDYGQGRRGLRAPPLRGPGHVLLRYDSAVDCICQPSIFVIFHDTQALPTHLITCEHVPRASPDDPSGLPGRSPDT

Assay [10] addresses T5, Protein mono-ADP-ribosyltransferase PARP10. The source holds these as a separate data set.
Assay [11] concerns the target T6, Protein mono-ADP-ribosyltransferase PARP12 (Homo sapiens, UniProt Q9H0J9).
T6 sequence (Q9H0J9 whole entry): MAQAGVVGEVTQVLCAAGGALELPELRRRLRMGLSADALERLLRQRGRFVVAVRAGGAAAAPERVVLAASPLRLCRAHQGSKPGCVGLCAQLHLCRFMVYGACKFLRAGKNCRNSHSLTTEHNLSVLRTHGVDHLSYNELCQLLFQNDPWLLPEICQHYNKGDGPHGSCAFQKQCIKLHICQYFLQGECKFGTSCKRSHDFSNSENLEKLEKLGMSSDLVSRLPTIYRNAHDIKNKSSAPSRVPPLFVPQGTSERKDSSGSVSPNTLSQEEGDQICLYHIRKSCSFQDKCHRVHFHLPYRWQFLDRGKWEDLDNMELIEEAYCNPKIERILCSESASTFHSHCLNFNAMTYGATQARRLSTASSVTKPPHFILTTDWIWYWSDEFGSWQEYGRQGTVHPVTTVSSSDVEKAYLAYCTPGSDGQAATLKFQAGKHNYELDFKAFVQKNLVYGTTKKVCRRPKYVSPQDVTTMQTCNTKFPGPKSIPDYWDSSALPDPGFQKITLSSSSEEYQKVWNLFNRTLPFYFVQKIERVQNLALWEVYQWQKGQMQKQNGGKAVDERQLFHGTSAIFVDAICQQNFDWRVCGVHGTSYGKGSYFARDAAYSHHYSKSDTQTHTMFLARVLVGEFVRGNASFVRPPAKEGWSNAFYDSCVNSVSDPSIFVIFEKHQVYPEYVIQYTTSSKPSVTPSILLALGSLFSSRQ

Values joined by “and” are separate entries in the source; they are usually repeats but may differ in a detail not shown here. Equal values may be shown once.

On to `O=C(COc1cccc2c(=O)[nH]ccc12)c1ccccc1`, for which the IC50 (as a rule, the concentration that inhibits the measured activity by half) is 1300 nM in assay [1]; 5700 nM in assay [2]; 3100 nM in [3]; 1070 nM and 1000 nM in [4]; 145 nM in assay [5].
Regarding `CN(C)CC(=O)Nc1ccc2[nH]c(=O)c3ccccc3c2c1` [PJ34], the IC50 in assay [6] is 380 nM; in [7] it was 759 nM; in assay [2], 4200 nM; in [8], 9000 nM; in [9], 5800 nM; in assay [10], 6800 nM. This compound also yielded an IC50 in assay [4] of 33.5 nM.
For the compound `CNCc1ccc(-c2[nH]c3cc(F)cc4c3c2CCNC4=O)cc1` [RUCAPARIB], the IC50 came out at 6650 nM in [11], 32600 nM in [8], 570 nM in assay [9] and 2310 nM in assay [10].
Turning to `C[C@]1(c2nc3c(C(N)=O)cccc3[nH]2)CCCN1` [VELIPARIB], the IC50 in assay [11] was 59400 nM; in assay [1], 2140 nM and 2040 nM; in assay [7], 3500 nM; in assay [2], 89000 nM.
